The values below come from PMC2929220.

The target of the experiment is His-tagged, recombinant importin β (UniProt Q14974). The experiment is described as follows: pull-down; preformed GST-IBB-importin β complexes on glutathione beads, RanQ69L-GTP (15 μM) added afterwards; bound and eluted fractions by semi-quantitative immunoblotting (IRDye secondary antibody, Odyssey). (A western blot detects proteins with antibodies after separation by electrophoresis.)

On to “His-tagged RanQ69L protein (preloaded with GTP) (from UniProt P62826 1-216) (enzyme; other documents disagree on this pair)”, for which the percent of the preformed importin β-KPNA2 IBB complexes dissociated by RanGTP turned out to be 60% and the percent of the preformed importin β-KPNA7 IBB complexes dissociated by RanGTP came to 3%.
